{
  "sequences": {"note": "Amino acid sequences for entries named in this document (tags omitted). Residues count along the entry.", "UniProt P00791, 60-385": "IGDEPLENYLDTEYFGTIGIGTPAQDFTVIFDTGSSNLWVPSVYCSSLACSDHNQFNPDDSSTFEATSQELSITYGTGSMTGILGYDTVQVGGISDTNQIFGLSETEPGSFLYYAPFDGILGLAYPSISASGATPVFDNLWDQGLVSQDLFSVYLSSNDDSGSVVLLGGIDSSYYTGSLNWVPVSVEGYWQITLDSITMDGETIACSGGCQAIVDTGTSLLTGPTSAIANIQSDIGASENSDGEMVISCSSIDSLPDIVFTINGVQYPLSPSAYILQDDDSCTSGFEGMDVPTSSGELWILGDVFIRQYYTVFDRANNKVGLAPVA"},
  "source": "paper PMC10655810",
  "about": "(Journal of Agricultural and Food Chemistry, 2023)",
  "target": "pepsin (Sus scrofa, UniProt P00791)",
  "type": "biochemical, porcine",
  "conditions": "pH 2.5",
  "data": [
    {"smiles": "O=S(=O)(F)Cc1ccccc1", "note": "[PMSF, phenylmethylsulfonyl fluoride]", "values": [
      {"measurement": "Proteolytic activity of pepsin (residual activity)", "result": "81 ± 8.9", "unit": "%"}
    ]}
  ]
}
